Results published in patent publication US20030148462A1, “Dual inhibition of sister chromatid separation at metaphase” (President and fellows of Harvard College, priority 2001, published 2003).

Sequences of proteins named here, by UniProt entry; tags and fusion partners are left off. A change or cut given only in a name is not applied to a line headed by its entry.
UniProt Q14674: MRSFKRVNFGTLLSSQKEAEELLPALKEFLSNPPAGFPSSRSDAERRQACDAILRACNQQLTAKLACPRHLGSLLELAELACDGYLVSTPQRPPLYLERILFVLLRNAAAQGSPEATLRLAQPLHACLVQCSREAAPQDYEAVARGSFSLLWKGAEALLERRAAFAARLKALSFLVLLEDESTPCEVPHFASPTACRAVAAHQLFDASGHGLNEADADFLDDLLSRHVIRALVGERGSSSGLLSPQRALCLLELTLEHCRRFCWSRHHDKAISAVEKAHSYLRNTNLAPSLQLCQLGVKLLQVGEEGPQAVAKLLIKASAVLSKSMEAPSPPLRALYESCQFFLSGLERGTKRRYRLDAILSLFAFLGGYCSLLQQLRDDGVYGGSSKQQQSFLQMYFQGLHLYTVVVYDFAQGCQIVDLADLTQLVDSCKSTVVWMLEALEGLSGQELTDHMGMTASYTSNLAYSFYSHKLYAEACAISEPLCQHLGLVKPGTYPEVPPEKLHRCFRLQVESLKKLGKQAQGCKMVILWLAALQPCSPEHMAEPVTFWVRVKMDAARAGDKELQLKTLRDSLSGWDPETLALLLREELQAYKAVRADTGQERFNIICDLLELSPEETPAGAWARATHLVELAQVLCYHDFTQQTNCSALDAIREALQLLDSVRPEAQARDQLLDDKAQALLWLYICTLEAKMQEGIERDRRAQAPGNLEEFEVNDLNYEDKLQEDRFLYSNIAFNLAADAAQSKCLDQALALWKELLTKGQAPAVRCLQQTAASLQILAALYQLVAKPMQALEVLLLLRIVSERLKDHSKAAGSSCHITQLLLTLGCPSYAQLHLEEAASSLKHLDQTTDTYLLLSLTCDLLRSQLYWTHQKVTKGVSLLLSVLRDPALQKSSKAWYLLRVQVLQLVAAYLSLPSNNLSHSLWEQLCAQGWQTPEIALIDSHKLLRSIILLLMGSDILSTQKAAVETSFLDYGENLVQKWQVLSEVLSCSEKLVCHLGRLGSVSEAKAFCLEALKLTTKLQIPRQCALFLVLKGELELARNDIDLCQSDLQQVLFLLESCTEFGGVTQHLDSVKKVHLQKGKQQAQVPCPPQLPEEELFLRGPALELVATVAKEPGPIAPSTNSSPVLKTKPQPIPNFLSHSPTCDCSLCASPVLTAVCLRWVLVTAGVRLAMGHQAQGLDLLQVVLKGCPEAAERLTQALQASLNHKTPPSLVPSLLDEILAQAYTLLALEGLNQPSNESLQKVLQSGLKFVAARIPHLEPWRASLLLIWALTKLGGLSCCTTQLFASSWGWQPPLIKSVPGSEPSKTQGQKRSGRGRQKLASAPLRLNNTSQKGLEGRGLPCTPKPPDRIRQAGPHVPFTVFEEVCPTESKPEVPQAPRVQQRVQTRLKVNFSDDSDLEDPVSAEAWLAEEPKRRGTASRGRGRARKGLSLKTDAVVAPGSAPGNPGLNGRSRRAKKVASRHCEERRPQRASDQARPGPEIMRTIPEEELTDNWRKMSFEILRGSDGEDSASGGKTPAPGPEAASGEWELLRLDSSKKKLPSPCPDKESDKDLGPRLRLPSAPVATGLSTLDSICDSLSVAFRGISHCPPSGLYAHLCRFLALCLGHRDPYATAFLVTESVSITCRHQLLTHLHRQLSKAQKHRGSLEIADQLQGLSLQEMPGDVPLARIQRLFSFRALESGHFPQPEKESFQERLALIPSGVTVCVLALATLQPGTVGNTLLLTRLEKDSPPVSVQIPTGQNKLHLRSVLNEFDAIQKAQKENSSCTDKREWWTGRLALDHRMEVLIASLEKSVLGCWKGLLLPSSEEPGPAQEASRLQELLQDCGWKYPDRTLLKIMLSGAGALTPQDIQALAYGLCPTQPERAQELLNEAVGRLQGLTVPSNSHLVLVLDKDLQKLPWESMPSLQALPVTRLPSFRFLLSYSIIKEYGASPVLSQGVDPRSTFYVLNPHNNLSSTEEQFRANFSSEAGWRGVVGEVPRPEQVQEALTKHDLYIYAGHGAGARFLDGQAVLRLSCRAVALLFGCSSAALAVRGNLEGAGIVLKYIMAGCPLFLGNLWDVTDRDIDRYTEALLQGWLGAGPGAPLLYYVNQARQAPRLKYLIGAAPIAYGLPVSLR

Target: T1, separase Ser1126 (Homo sapiens, UniProt Q14674)
T1 construct: Full-length human separase was PCR-amplified from a human fetal thymus cDNA library; made in house; host or cells: 293T cells (cotransfected, unsynchronized)
Assay: Ser1126-specific in vitro kinase assays with LC-MS/MS
Format: biochemical
Settings: 1 mM ATP
Excerpt: FIGS. 6A-6E illustrate that the inhibitory phosphorylation of separase is high in metaphase and declines upon anaphase onset. (A) depicts FACS and Western analyses of synchronized HeLaS3 cells undergoing mitosis. (B) depicts quantification of cell cycle distribution and phosphorylation status of separase at Ser1126 for the samples shown in (A). (C) depicts a nano-scale microcapillary LC-MS/MS analysis of native separase phosphorylation state. Shown are the selected reaction, extracted-ion chromatograms corresponding to the unphosphorylated (upper trace) and phosphorylated (bottom trace) Glu1115-Lys1130 native tryptic peptide (blue and green) and heavy internal standard (brown and red). […] Shown is the phosphorylation status of Ser1126 in percent as determined by incubation of affinity-purified securin/separase with various pure kinases in the presence of ATP (1 mM) followed by LC-MS/MS analysis. […]
Quantitative mass spectrometry was also used with isotopically labeled peptides to determine which kinase was able to phosphorylate separase in vitro at its inhibitory site. […]
Coomassie stained securin and separase bands were digested in-gel (Shevchenko et al. (1996) Anal. Chem. 68:850). […] Eluting peptides were ionized by electrospray ionization and analyzed by an LCQ-DECA ion trap mass spectrometer (ThermoFinnigan). […]

## CDC2/cyclinB1: pure kinase from New England Biolabs
Pure kinase, LC-MS/MS
  Separase phosphorylated at Ser1126: 88%
securin/separase from unsynchronized 293T cells
  Phosphorylation of Ser1126 by kinase: efficiently phosphorylated
